In general, IC50 refers to the concentration that inhibits the measured activity by half. Broadly, the Ki is the dissociation constant of the complex between target and ligand, obtained from inhibition or displacement.

Amino acid sequences for entries named in this document (tags omitted). Residues count along the entry.
UniProt Q00987, 1-111 limits assumed: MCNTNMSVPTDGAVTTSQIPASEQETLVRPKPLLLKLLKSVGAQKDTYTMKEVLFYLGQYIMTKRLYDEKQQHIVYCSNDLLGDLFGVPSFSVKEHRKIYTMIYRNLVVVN

The values below come from US20170129903A1, “COMPOUNDS COMPRISING 1,1a,2,5a-TETRAHYDROSPIRO[INDOLE-3,2a-PYRROLE]-2,5a-DIONE SYSTEM AS INHIBITORS P53-MDM2 PROTEIN-PROTEIN INTERACTION” (ADAMED SP. Z O.O., priority 2014, published 2017).

For assay [1], the system named is SJSA-1 osteosarcoma cell line. Nature of the assay: MTT cell viability assay. To be noted: read-out: IC50 (μM) SJSA-1, 72 h incubation, average of 2-5 experiments. The procedure: The effect of the invented p53-Mdm2 inhibitors on cell viability has been assessed using MTT assay. It is a colorimetric assay that measures conversion of tetrazolium ring of the soluble yellow dye (MTT) into insoluble purple formazan. This process is catalysed solely in mitochondrial dehydrogenases of living cells.
Cells were seeded on 96-well plates and then treated with successive dilutions of tested compounds. After 72 h incubation, MTT was added to the final concentration 0.5 mg/ml. The cells were further incubated for the next 4 h. Then the solution was drained and the remaining formazan crystals were dissolved in 100 μl DMSO. […] All the MTT experiments were independently repeated 2-5 times. Dose-dependent binding curves and IC50 values were calculated using GraphPad Prism 5.
In general terms: Formazan colour is commonly taken as a measure of viable cells.

For assay [2], the target named is p53-Mdm2 interaction (N-terminal domain of Mdm2 protein, amino acids 1-111) (Homo sapiens, UniProt Q00987). Nature of the assay: Fluorescence polarization (FP) binding assay of p53-Mdm2 interaction. The note with it: read-out: Ki (nM) p53-Mdm2, 130 nM Mdm2, FAM-labelled p53 peptide, Ki transformed from IC50 using Kenakin equation. As for the experimental part: The inhibition of p53-Mdm2 interaction was measured using a fluorescence polarization (FP) binding assay. FP measures the rotational movement of molecules in a homogenous suspension. For this assay, N-terminal domain of Mdm2 protein (amino acids 1-111) is combined with a fluorescein-labelled (FAM) peptide derived from p53 trans-activation domain. Upon excitation of the fluorescent ligand with linearly polarized light, […]. If the peptide is bound by Mdm2, rotation will slow down and the perpendicular component will decrease. […]
Fluorescence polarization experiments were read on Tecan Infinite M1000 reader with the 470 nm excitation and 520 nm emission filters for fluorescein. The fluorescence polarization was measured in black 96-well plates (Corning, CLS3991) in room temperature. […]
The test was performed by combining successive dilution of compounds diluted in dimethyl sulfoxide (DMSO, 5% final concentration) with 130 nM Mdm2 in reaction buffer (PBS, 0.1% CHAPS, 5 mM DTT (dithiothreitol)). […] Final reading was performed after 90 minutes of incubation. Dose-dependent binding curves and IC50 values were calculated using GraphPad Prism5 and next transformed to Ki values using Kenakin equation.
(In general: Polarisation of emitted light reports the rotation of a fluorescent probe.)

Turning to `CCc1cccc(-n2nc3c(c2C(C)C)C2(C(=O)Nc4cc(Cl)ccc42)N(c2cc(Cl)ccc2C)C3=O)c1` (centres unmarked), the IC50 in assay [1] is 14.7 µM. The Ki in assay [2] was found to be 141 nM.
